FGF22 binding: shifts melting point of recombinant human FGF22 | Q9HCT0 | recombinant FGF22 thermal shift, SYPRO orange fluorescence; percent of sucrose octasulfate shift, DMSO zero | activity (Tm shift, normalised), % at 9.99 µM | 1.5% of 340,000 active | AID 651658;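 active = mean Tm shift, scaled 0 neutral to 100 positive control, at about 1.3% or above, every replicate too, limit read from the data; inconclusive = no clear call, values can overlap the other calls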
ERp5 block: blocks human ERp5 reductase activity on insulin. inhibition, % at 9.99 µM. 0.05% of 350,000 active. AID 651711. Q15084. ERp5 insulin aggregation, absorbance 650 nm, 90 min;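 active = mean replicate inhibition above about 25%, with every replicate also reaching it, limit read from the data, passing the limit was not always enough; inconclusive = only one of those two criteria met; inactive = neither criterion met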
S100A4 inh HTS: inhibitors of human S100A4 binding to myosin IIA peptide. S100A4/TAMRA-MyoIIA peptide fluorescence polarization. 0.14% of 360,000 active. P26447. AID 652163. inhibition, % at 10.7 µM;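 active = mean inhibition of at least 70% across replicates, with every replicate also reaching that level; inconclusive = mean inhibition reaches 70% but some replicates fall short; inactive = mean inhibition below 70%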
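System – human S100A4 monomer protein, biochemical binding assay · Buffer or medium – Calcium-containing HEPES buffer, pH 7.2 · Timing – 5 min between mix addition and reading · Also added – TAMRA-labelled myosin IIA heavy-chain peptide probe, 5 nM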
SIRT5 inh: blocks human SIRT5 desuccinylation of peptide; Q9NXA8; Purified SirT5, succinyl-peptide AMC, trypsin-coupled fluorescence; AID 652115; inhibition, % at 15 µM; 1.1% of 330,000 active; in the data active = inhibition above about 15%; inconclusive = no clear call, values can overlap the other calls
PDI inh: blocks human protein disulfide isomerase activity | 0.052% of 350,000 active | inhibition, % at 10 µM | AID 588391 | P07237 | PDI insulin aggregation turbidity, A650, 90 min;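 active = mean inhibition across replicates of 30% or more, whatever share of single replicates reach that level; inconclusive = mean inhibition below 30% while every single replicate reaches 30%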
Yeast UUG start: alters start codon recognition fidelity in yeast | S. cerevisiae UUG-firefly luciferase reporter, luminescence/redox ratio | activity score, % at 18.7 µM | hit rate 0.13% among 350,000 | AID 602363;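 active means replicate mean at a twofold rise or more, about +100% in these data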;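 further: firefly luciferase made from a UUG start codon reports start codon fidelity; reporter light over untreated wells divided by growth signal over untreated wells; some hits fall short of that in this replicate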
A number is an active result; i = inactive; ? = inconclusive; nt = no result given. This is a sample that favours compounds with a hit; in the whole collection about 2.2% have one here.

SMILES	FGF22 binding	ERp5 block	S100A4 inh HTS	SIRT5 inh	PDI inh	Yeast UUG start
C[C@@H]1CN([C@@H](C)CO)C(=O)c2cccc(NC(=O)Nc3ccc(C(F)(F)F)cc3)c2O[C@@H]1CN(C)Cc1ccc(C(=O)Nc2ccccc2N)cc1	i	i	i	i	nt	nt
COc1ccc(C(=O)NCCNc2ccc([N+](=O)[O-])cc2)cc1	67	i	i	i	i	nt
CCOC(=O)C(C#N)=C1CCN(Cc2ccccc2)CC1	i	i	i	i	i	i
CCOC(=O)/C(C#N)=C1/C(=O)N(Cc2ccccc2)c2ccccc21	i	i	i	21	i	nt
COc1cccc(NC(=O)N2C[C@H](O)COC[C@H]3O[C@@H](CC(=O)NC4CCC4)CC[C@@H]32)c1	i	i	i	i	nt	nt
COc1n[nH]c(C(=O)Nc2nc3ccccc3s2)c1[N+](=O)[O-]	44	i	i	i	i	nt
COc1n[nH]c(C(=O)NCc2ccccc2)c1[N+](=O)[O-]	i	i	i	i	i	nt
COc1ccc(Cl)cc1S(=O)(=O)N1CCCC1=O	43	i	i	i	i	nt
COc1ccc(Cl)cc1S(=O)(=O)N1CCN=C1c1ccccc1	i	i	i	i	i	i
O=C(NC(CC(=O)N1CCN(c2ccccc2)CC1)c1ccccc1)c1ccccc1 (stereo not drawn)	i	i	i	nt	i	i
CC(=O)NC(CC(=O)N1CCN(C(C)=O)CC1)c1ccccc1 (stereo not drawn)	i	i	i	25	i	i
Cc1noc(C)c1NC(=O)Nc1ccc2c(c1)C(=O)N([C@H](C)CO)C[C@H](C)[C@H](CN(C)S(=O)(=O)c1ccc(Cl)cc1)O2	i	i	i	i	nt	i
O=C(NCC1CC1)[C@H]1N[C@H]2c3ccc(C4=CCCCC4)c(=O)n3C[C@H]2[C@@H]1CO	i	i	i	i	nt	nt
CCC(c1ccccc1)C(CC)c1cc(O)c(O)c(O)c1 (stereo not drawn)	43	i	i	i	i	i
CCC(C)c1ccccc1O (stereo not drawn)	i	i	i	nt	nt	i
COc1ccc2c3c([nH]c2c1)[C@@H](CO)N(C(=O)NC1CCCC1)CC31CN(S(C)(=O)=O)C1	i	i	i	nt	nt	nt
COc1ccccc1N1CCN(CCOc2c(OC)cccc2OC)CC1	nt	nt	nt	nt	i	nt
COc1cccc(OC)c1OCCN1CCCC1	i	i	i	21	i	i
CCCCCCCCCCCCCCCCCCNc1ccn(C2OC(COP(=O)(O)OCC3OC(n4cc(F)c(=O)[nH]c4=O)CC3O)C(O)C2O)c(=O)n1 (stereo not drawn)	nt	i	i	35	i	nt
O=c1[nH]c(=O)n(C2OC(CO)C(O)C(O)C2O)cc1F (stereo not drawn)	i	i	i	i	nt	nt
CO[C@H]1CN(C)C(=O)c2ccc(NC(=O)Nc3ccccc3)cc2OC[C@H](C)N(C(=O)Nc2c(C)noc2C)C[C@H]1C	i	i	i	i	nt	i
CC1CCc2c(C(=O)NCc3cccnc3)csc2C1 (stereo not drawn)	43	i	i	i	i	i
O=C(Nc1ccc(Cl)cc1Cl)N1CCN(c2ncccn2)CC1	43	i	i	i	i	i
O=C(Nc1cccc(Cl)c1)N1CCN(c2ncccn2)CC1	nt	nt	nt	nt	i	nt
C/C(=N\NC(=O)CN(c1ccc(Oc2ccccc2)cc1)S(C)(=O)=O)C(C)(C)C	44	i	i	i	i	nt
SMILES	FGF22 binding	ERp5 block	S100A4 inh HTS	SIRT5 inh	PDI inh	Yeast UUG start
NCC(O)CN(c1ccccc1)c1ccccc1 (stereo not drawn)	nt	i	i	38	i	nt
OCCN(CCO)CC(O)CN(c1ccccc1)c1ccccc1 (stereo not drawn)	i	i	i	i	i	i
Cc1nc2cc(Br)ccc2c(=O)n1Cc1cccc(O)c1	i	i	i	i	nt	i
CC(=O)c1ccc(N(C(=O)c2ccco2)C(C(=O)NC2CCCC2)c2ccc(N3CCOCC3)cc2)cc1 (stereo not drawn)	44	i	i	i	i	i
COc1cc(OC)cc(N(C(=O)c2ccco2)C(C(=O)NC2CCCC2)c2ccc(N3CCOCC3)cc2)c1 (stereo not drawn)	i	i	i	i	i	i
CCCNC(=O)Nc1ccc2c(c1)C(=O)N(C)[C@H]1CC[C@H](CC(=O)NC3CCC3)O[C@@H]1CO2	i	i	i	i	nt	i
Cc1cnc2ncc3sccc3c2c1	i	i	i	i	i	nt
c1cnc2ncc3sccc3c2c1	43	i	i	i	i	nt
CCC(=O)N1[C@@H]2Cn3c(ccc(-c4ccncc4)c3=O)[C@H]1[C@@H](C(=O)NC1Cc3ccccc3C1)[C@@H]2CO	i	i	i	i	nt	nt
O=C(CNC(=O)c1ccccc1F)NCCOc1ccccc1Cl	43	i	i	i	i	i
O=C(NCCOc1ccccc1Cl)C(=O)NCCOc1ccccc1Cl	i	i	i	i	i	i
O=C(COC(=O)CNC(=O)c1ccccc1F)Nc1cccnc1Cl	43	i	i	i	i	nt
CCCNC(=O)C[C@H]1C[C@@H]2c3cc(NS(=O)(=O)c4ccc(OC)cc4)ccc3O[C@@H]2[C@@H](CO)O1	i	nt	nt	nt	nt	i
O=C(Nc1cccc(F)c1)N1CC(=O)N2[C@H](CO)[C@H](c3ccc(-c4ccccc4)cc3)[C@H]2C1	nt	i	i	i	nt	nt
CCCNC(=O)N1CC2(CCN(C(=O)C3CCCCC3)CC2)c2c([nH]c3cc(OC)ccc23)[C@H]1CO	i	nt	nt	nt	nt	nt
CC(=O)NC[C@@H]1[C@@H](c2ccc(C3=CCCCC3)cc2)[C@@H](CO)N1C(=O)C1CCC1	nt	i	i	i	nt	nt
COCC(=O)N(C)C[C@@H]1Oc2cc(-c3ccccc3)ccc2S(=O)(=O)N([C@H](C)CO)C[C@H]1C	i	i	i	i	nt	i
O=C1CC(c2cccc(F)c2)c2c(c3ccccc3[nH]c2=O)O1 (stereo not drawn)	43	i	i	i	i	nt
O=S(=O)(c1cccc(NC(=S)N2CCN(c3ccc(F)cc3)CC2)c1)C(F)F	i	i	i	30	i	nt
CC(C(=O)Nc1cccc(S(=O)(=O)N2CCOCC2)c1)N1CCN(c2ccc(F)cc2)CC1 (stereo not drawn)	i	i	i	16	i	nt
O=C(Cc1ccccc1F)Nc1cccc(S(=O)(=O)N2CCOCC2)c1	i	i	i	17	i	nt
O=C(Cc1ccccc1Cl)Nc1cccc(S(=O)(=O)N2CCOCC2)c1	i	i	i	i	i	nt
O=S(=O)(c1cccc(NC(=S)N2CCN(c3cccc(Cl)c3)CC2)c1)C(F)F	i	i	i	i	i	nt
O=S(=O)(Nc1cccc(S(=O)(=O)N2CCOCC2)c1)c1ccc(Cl)s1	43	?	i	i	i	i
CO[C@@H]1CN(C)C(=O)c2cc(NC(=O)C3CCC3)ccc2OC[C@H](C)NC[C@H]1C	i	i	i	i	nt	i
O=C(CN1CCOCC1)NCC[C@@H]1CC[C@@H](NC(=O)c2ccccc2F)[C@@H](CO)O1	i	i	i	i	nt	i
Fc1cccc(NC(=S)N2CCCC2)c1	i	i	i	15	i	nt
